According to paper PMC8327618 (Journal of the American Chemical Society, 2021):

Experiments:
[1] = Water solubility in PBS relative to 2’,7’-dichlorofluorescein; format: physicochemical
[2] = Spectroscopic characterization in 0.1 M NaOH; format: physicochemical; conditions: in 0.1M NaOH(aq)

Question: With “2’,7’-dichloro-3-carboxyfluorescein [2’,7’-dichloro-3-carboxy-fluorescein, reference compound]” as the substance, how does the Solubility [1] read?
Answer: 1

Question: What about the λem [2] of the same substance?
Answer: 523 nm

Question: What about the ε ([2]; at max absorption) of the same substance?
Answer: 86,000 M^−1cm^−1

Question: What about the Φfl ([2]; relative to fluorescein) of the same substance?
Answer: 0.94
